Laboratory results reported in publication PMC6235002, “Born to sense: biophysical analyses of the oxygen sensing prolyl hydroxylase from the simplest animal Trichoplax adhaerens” (Hypoxia, 2018).

Amino acid sequences for entries named in this document (tags omitted). Residues count along the entry.
UniProt Q9GZT9, 181-426: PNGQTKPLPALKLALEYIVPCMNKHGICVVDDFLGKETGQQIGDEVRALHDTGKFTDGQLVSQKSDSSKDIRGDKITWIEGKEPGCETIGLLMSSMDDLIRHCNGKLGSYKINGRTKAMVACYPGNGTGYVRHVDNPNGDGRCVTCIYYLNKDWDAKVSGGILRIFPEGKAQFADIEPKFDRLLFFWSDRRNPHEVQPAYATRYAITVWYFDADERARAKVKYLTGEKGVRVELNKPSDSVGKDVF

What was measured:
HsPHD2^181-426 [1] = target: T1, HsPHD2^181-426 (Homo sapiens, UniProt Q9GZT9); set-up: compared to the truncated human PHD isoform 2 (HsPHD2^181-426); method as in PMID 25120187; details: read-out: Km (2OG), previous studies; cited from earlier work
HsPHD2^181-426 [2] = target: T1, HsPHD2^181-426; details: pH 7.5
Procedure: Notes: (A) Sequence alignment of TaHIFa, HsHIFa, and substrates of PHD-like enzymes in Dictyostelium discoideum (DdSkp1) and Pseudomonas putida (PpEF-Tu). […] Peptide hydroxylation was analyzed by MALDI-MS; the apparent non-enzymatic Met oxidation was subtracted. Data were fitted with the Michaelis-Menten equation using GraphPad Prism® (errors are indicated as standard deviations, n=3).

O=C(O)CCC(=O)C(=O)O [2OG, 2-oxoglutarate]
Km (HsPHD2^181-426 [1]): 13 ± 2 µM
2OG decarboxylation in presence of substrate (HsPHD2^181-426 [2]): strongly increased in presence of substrate
